Source: US20220056087A1

Molecular target: CD32a (THP-1)
Assay: flow cytometry on THP-1 cells; blocked: anti-FcγR antibody to CD32a (PE); without blocker 54863

Substance: G001 (native IgG1 Fc) (from UniProt P01857 99-330)
- number printed in the histogram (unnamed; fluorescence of the CD32a stain) at 10ug/mL: 51400
- number printed in the histogram (unnamed; fluorescence of the CD32a stain) at 100ug/mL: 57200
- number printed in the histogram (unnamed; fluorescence of the CD32a stain) at 1000ug/mL: 44600
